# According to patent publication US20080118529A1 (priority 2005, published 2008):
# Test system: tPA
# Assay type: biochemical, human
substance,measurement,value
"native albumin: murine serum albumin, native",tPA/plasminogen activating potential of protein/antigen preparation,not reflected by stimulation of tPA activation
